Assay [1] has as its system estrogen receptor (ERE) and BMP receptor (BRE). As to the kind of experiment: Ratio ERE stimulation/BRE stimulation (ERE/BRE ratio) in KS483 cells. The format is cell-based, mouse. On the procedure: Mouse pre-osteoblastic cell line KS483 was maintained in phenol red-free α-MEM containing 10% non-charcoal-treated FBS and penicillin/streptomycin. Cells were seeded in 24-well plates at a density of 1.6x10^4 cells/well, and cultured in phenol red-free α-MEM supplemented with penicillin/streptomycin and 10% charcoal-treated FBS. After 24 hours, cells were transiently transfected with 0.25 µg luciferase reporter (see below) using a lipid-based FuGENE 6 transfection reagent according to the manufacturer's recommendations (Roche, Almere, Netherlands). Cells were transfected with luciferase reporter, i.e. either estrogen-receptor-responsive element (ERE-Luciferase) or BMP-receptor-responsive element (BRE-Luciferas), hereinafter jointly referred to as luciferase reporter. Transfection efficiency was measured by co-transfection of 25 ng of SV40-Renilla control vector.. […] Luciferase activity was determined by measuring bioluminescence. Luciferase activity was expressed as fold induction ± SEM, which was corrected for transfection efficiency using sv40-renilla luciferase activity. The measured luciferase activity is indicative for the extent of stimulation of the estrogen receptor or BMP receptor by the test component. Subsequently the ratio ERE stimulation/BRE stimulation (ERE/BRE ratio) was determined, which is indicative for the estrogenic effects of the test component (Table 3).

Assay [2] deals with KS483 (mouse pre-osteoblastic cell line). Put plainly: Calcium deposition in KS483 cells (cresolphthalein complexon method). In kind it is cell-based. Particulars: 18 days, compared to control levels. The protocol: KS483 (mouse pre-osteoblastic cell line, Leids Universitair […] Centrum, Leiden, The Netherlands) was maintained in phenol red-free alpha-minimum essential medium (α-MEM) containing 10% non-charcoal-treated fetal bovine serum (FBS) and penicillin/streptomycin. Cells were seeded in 12-well plates at a density of 4.5x10^4 cells/well, and cultured in phenol red-free α-MEM supplemented with penicillin/streptomycin and 10% charcoal-treated FBS. Cells were exposed to vehicle (0.01 wt.% DMSO) , β-estradiol as a positive control (10^-8 M and 10^-9 M in 0.01 wt.% DMSO) or galangin (10^-5 M, 10^-6 M and 10^-7 M in 0.01 wt.% DMSO) for 18 days. From day 4 ascorbic acid (50μg/ml), and from day 11 β-glycerolphosphate (5mM) were added to the culture medium. Every 3-4 days the medium was changed. […] Alkaline phosphatase (ALP) activity was determined kinetically in 25μl aliquots by colorimetric determination of the produced p-nitrophenol at 405 nm, using 6 mmol/L p-nitrophenylphosphate as a substrate at a 37°C and pH 10.5. To correct the ALP activity determination for cell quantity, the DNA content was measured in 100μl aliquots, using Hoechst 33258 and calibrated against a DNA standard (0.5-10μg/mL salmon sperm DNA). Fluorescence was measured at a wavelength of 355-460 nm. […]

Marks after values point to notes of the source that are not given here.

For the molecule `C[C@]12CC[C@@H]3c4ccc(O)cc4CC[C@H]3[C@@H]1CC[C@@H]2O` [β-E, 17 β-estradiol], the ERE/BRE in assay [1] (10^-9M, ratio ERE stimulation/BRE stimulation) was 10.2. For the same molecule, the ERE/BRE ratio entry in assay [1] (result in words, galangin as compared to kaempherol and quercetin) is given as “high”. Besides, the “Fold increase of calcium (mean ± SEM)” value is 1.9 ± 0.120^a fold induction in assay [2] (10^-8M) and 1.3 ± 0.064 fold induction in assay [2] (10^-9M).
